## Antibody variant affinities, Ab-14 light chain, assay B

From the AlphaSeq antibody data of Li et al. 2023 (doi:10.1038/s41467-023-39022-2), copy in the FLAb collection.

Target peptide (SARS-CoV-2 spike, HR2 region): PDVDLGDISGINAS

Ab-14 is the parent antibody, in scFv form: VH, then a 15-residue (Gly4Ser)3 linker, then VL. The heavy chain is unchanged in all variants.
VH: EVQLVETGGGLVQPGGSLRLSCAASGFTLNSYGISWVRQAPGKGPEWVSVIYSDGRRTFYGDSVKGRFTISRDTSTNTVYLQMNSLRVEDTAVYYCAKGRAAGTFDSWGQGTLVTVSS
VL: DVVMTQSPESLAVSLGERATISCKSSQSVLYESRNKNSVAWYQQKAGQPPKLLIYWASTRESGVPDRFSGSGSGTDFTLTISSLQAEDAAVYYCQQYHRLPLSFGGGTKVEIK

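Phage display of a naive human antibody library on the peptide gave the parent. The variants were designed computationally from a first round of random CDR variants and then made and measured. Their group label is 14L_GP_Gibbs (GP: Gaussian process model; Gibbs: Gibbs sampling; a sequence that several methods proposed may carry one label only). In AlphaSeq, yeast of one mating type display the scFv and yeast of the other type display the target. Pairs that bind mate more often; barcode pairs of the diploids are counted by sequencing. The ratio of observed to expected reads was calibrated, replicate by replicate, on BCL2-family standards whose Kd was known from biolayer interferometry. The assay was run in six technical replicates.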

Each variant is given by its three light chain CDRs, as the data file delimits them; those of the parent are KSSQSVLYESRNKNSVA, WASTRES, QQYHRLPLS. Affinities are written as log10 Kd with Kd in nM; a lower number is a better binder. A mean of the replicates is given; it leaves out those without a signal. "ND" marks a missing value. The strain was present, yet no cells mated with the target were sequenced in that replicate, which points to weak or no binding. A sequence measured in both rounds can read differently, since the two assays cover different ranges.

CDR-L1,CDR-L2,CDR-L3,"log10 Kd, replicates","log10 Kd (nM), mean",empty controls
KVSQSNPYESRNAQSVA,NASQRES,QQYHRLPLS,0.40 / 0.09 / 0.03 / 0.11 / -0.02 / 0.16,0.13,1 of 18 (2.62)
KISQSVLYEQRAQNSVA,EASTRED,QQYHRLPLS,-0.09 / -0.19 / -0.28 / -0.26 / -0.01 / 0.72,-0.02,0 of 18
KYQQSVLTEDRNKNSVA,NASTRES,QDYHQLPLS,0.40 / 0.59 / 0.37 / 0.34 / 0.39 / 0.49,0.43,4 of 18 (3.15)
HLSQSQLYESRNKNSVA,NASTRLH,QQYHRLPLS,0.12 / 0.06 / 0.01 / 0.03 / -0.07 / 0.16,0.05,0 of 18
KVSPSMWYESRNKNSVA,DASQRES,QQYHRLPLQ,0.13 / -0.14 / -0.01 / -0.13 / -0.18 / -0.11,-0.07,1 of 18 (3.49)
KMAQGWEYESRNKNSVA,NASVRES,QQYHRLPLS,0.15 / 0.03 / 0.03 / -0.06 / -0.03 / 0.10,0.04,2 of 18 (3.43)
FLEQSEEYESRMKNSVA,NASTRCS,QQYHRLPLS,0.12 / 0.02 / -0.28 / -0.11 / -0.09 / 0.03,-0.05,0 of 18
KCQISDEQESRQKNSVA,HASTRES,QQYHRLPLS,0.34 / 0.22 / 0.53 / 0.03 / 0.39 / 0.49,0.33,1 of 18 (2.54)
KCSQSVDYLSRNMNNVA,NASTRES,QDYHRLPLS,0.02 / -0.23 / -0.18 / -0.25 / -0.24 / -0.03,-0.15,0 of 18
KSEQLVDYKDRNLNSVA,NASTRES,QQYHRLPLS,0.24 / 0.34 / ND / ND / -0.55 / 0.03,0.02,0 of 18
KIHISELYEDRNINSVA,SASQRLE,QQYHRLPLS,0.42 / 0.60 / 0.51 / 0.40 / 0.52 / 0.46,0.48,4 of 18 (2.64)
ALSQSVGGESRNPNSVA,HASTRER,QQYHRLPLS,0.74 / 0.38 / 0.41 / 0.34 / 0.86 / 0.73,0.58,0 of 18
KWSQSVPMGERNKNSVA,MAHKRES,QQYHRLPLS,2.12 / 1.39 / 1.32 / 1.43 / 1.66 / 1.52,1.57,1 of 18 (2.38)
KSFFSKPGESRNKNSVA,EASTRES,QQYHRLPLS,-0.06 / 0.10 / -0.17 / 0.03 / 0.46 / -0.09,0.04,2 of 18 (2.41)
KQSMSVMMGDRNKNSVA,SAHKRES,QQYHRLPLS,ND / ND / 2.29 / 1.88 / 2.61 / 1.54,2.08,3 of 18 (3.12)
KISQSYLMESRNKNSVA,NASTRLW,QQYHRLPLS,0.12 / -0.08 / 0.02 / -0.19 / -0.01 / -0.06,-0.03,0 of 18
KLMGEMEYESRNKNSVA,HASERES,QQYHRLPLQ,0.36 / 0.34 / 0.22 / 0.05 / 0.53 / 0.42,0.32,2 of 18 (2.16)
KTEVSELYESRNKNSVA,NASERES,QQYHRLPLS,0.18 / 0.17 / -0.20 / -0.78 / -0.31 / -0.22,-0.19,1 of 18 (2.18)
KLQQGMDYESRNDNSVA,HASMRES,QQYHRLPLF,0.51 / 0.71 / 0.63 / 0.52 / 0.59 / 0.32,0.55,0 of 18
KSMQEWEYQSRNKNSVA,HASKRES,QQYHRLPLS,0.29 / 0.78 / 0.77 / 0.88 / 0.52 / 0.92,0.69,1 of 18 (1.58)
KQSQSVPMGERNKNSVA,MASYRES,QQYHRLPLS,1.92 / 1.49 / 1.62 / 1.32 / 1.13 / 1.54,1.50,0 of 18
WLSMSVEQQSRNKNAVA,SASTRES,QQYHRLPLS,0.78 / 0.84 / 0.44 / 0.52 / 0.43 / 0.81,0.64,2 of 18 (2.76)
KLSQSQLYESRNKNSVA,QAHHREH,QQYHRLPLS,2.21 / 2.03 / 2.54 / 1.83 / 1.81 / 2.20,2.10,0 of 18
KLSQSWLYGSRNANSVA,NASQREE,QQYHRLPLS,-0.08 / -0.49 / -0.44 / -0.46 / -0.41 / -0.40,-0.38,0 of 18
KMSQSVDYEDRNCNAVA,SASQREE,QQYHRLPLS,0.70 / 0.22 / 0.19 / 0.09 / 0.27 / 0.29,0.29,1 of 18 (2.51)
KFMYSVLYEERNQNSVA,NASQREQ,QQYHRLPLS,0.89 / 0.57 / 0.54 / 0.40 / 0.44 / 0.63,0.58,2 of 18 (4.00)
KLMYSKEYEQRNKNSVA,EASVRES,QQYHRLPLS,0.19 / 0.47 / 0.42 / 0.22 / 0.62 / 0.91,0.47,2 of 18 (1.87)
KLPNSQEYESRWKNSVA,EASTREL,QQYHRLPLS,0.61 / 0.11 / 0.22 / 0.07 / 0.09 / 0.53,0.27,0 of 18
KVSPSWLYEDRNWNSVA,QASCRNS,QQYHRLPLS,ND / 0.75 / 2.01 / 1.17 / 1.06 / 1.51,1.30,1 of 18 (2.20)
KLQQSWEYESRNSNNVA,QASTRSD,QQYHRLPLS,1.09 / 1.90 / ND / 1.57 / ND / ND,1.52,1 of 18 (2.14)
KVVESELYESRNSNSVA,NASYRES,QQYHRLPLS,0.31 / 0.42 / 0.27 / -0.13 / 0.14 / 0.33,0.22,1 of 18 (2.27)
KLSQSMLYESRNWNSVA,QASTRES,QQYHRLPLT,0.21 / -0.20 / -0.29 / -0.54 / -0.27 / -0.11,-0.20,1 of 18 (1.29)
KLSQSVDYQSRNKNSVA,NAQTRMS,QQYHRLPLS,-0.08 / -0.09 / -0.20 / -0.22 / -0.16 / 0.04,-0.12,1 of 18 (2.18)
KLQFSVDYESRNKNAVA,EASTREK,QQYHRLPLS,0.38 / -0.53 / -0.70 / -0.28 / -0.37 / -0.29,-0.30,0 of 18
WWSMSVMQESRNKNSVA,SASTREL,QQYHRLPLS,ND / ND / ND / ND / ND / ND,ND,0 of 18
KLSQSMLYESRNKNNVA,AASDRES,QQYHRLPLS,-0.25 / -0.45 / -0.41 / -0.43 / -0.58 / -0.27,-0.40,1 of 18 (3.96)
KLSQEMEYESRNKNSVA,QASERES,QDYHRLPLS,0.69 / 0.40 / 0.29 / 0.29 / 0.20 / 0.61,0.41,0 of 18
KSSQLEYYEDRMKNSVA,NASYRLS,QQYHRLPLS,0.50 / 0.31 / 0.31 / 0.69 / 0.22 / 0.58,0.43,4 of 18 (2.93)
KLSQSVCYEQRQKNSVA,NASTRMS,QQYHRLKLS,ND / 1.88 / 1.54 / 2.77 / 2.25 / 2.20,2.13,2 of 18 (2.80)
HAYQSGLYEQRVKNSVA,SASMRES,QQYHRLPLS,1.42 / 1.58 / 1.75 / 1.24 / 1.44 / 1.97,1.57,1 of 18 (2.74)
KFFQSGLDDQRNDNSVA,SASTRFS,QQYHRLPLS,0.28 / 0.48 / 0.30 / 0.28 / 0.17 / 0.53,0.34,0 of 18

The opening 5 entries, copied out:

| CDR-L1 | CDR-L2 | CDR-L3 | log10 Kd, replicates | log10 Kd (nM), mean | empty controls |
|---|---|---|---|---|---|
| KVSQSNPYESRNAQSVA | NASQRES | QQYHRLPLS | 0.40 / 0.09 / 0.03 / 0.11 / -0.02 / 0.16 | 0.13 | 1 of 18 (2.62) |
| KISQSVLYEQRAQNSVA | EASTRED | QQYHRLPLS | -0.09 / -0.19 / -0.28 / -0.26 / -0.01 / 0.72 | -0.02 | 0 of 18 |
| KYQQSVLTEDRNKNSVA | NASTRES | QDYHQLPLS | 0.40 / 0.59 / 0.37 / 0.34 / 0.39 / 0.49 | 0.43 | 4 of 18 (3.15) |
| HLSQSQLYESRNKNSVA | NASTRLH | QQYHRLPLS | 0.12 / 0.06 / 0.01 / 0.03 / -0.07 / 0.16 | 0.05 | 0 of 18 |
| KVSPSMWYESRNKNSVA | DASQRES | QQYHRLPLQ | 0.13 / -0.14 / -0.01 / -0.13 / -0.18 / -0.11 | -0.07 | 1 of 18 (3.49) |

In the paper, a design with two or fewer of six values counts as a poor binder. Empty control strains, which show no peptide, gave a signal in 4% of pairings with all light chain designs; the median was 2.64 and 95% of these signals were weaker than 1.59. No background was subtracted. The control count says in how many pairings with the empty strains this scFv gave a signal, with their mean in brackets. Of ten entries with the parent sequence, four were seen in most replicates (averages 0.34 to 2.37), three in one and three in none, so single entries are noisy.